Test results: publication PMC7583350 (Journal of medicinal chemistry, 2018)

Columns and labels:
Format in all cases: cell-based, human
RPMI 8226 cells = assay: MTS assay, multiple myeloma cell line RPMI 8226; details: LCL161-resistant MM cell line, 48 hr, 20 μM
LP1 cells = assay: MTS assay, multiple myeloma cell line LP1; details: LCL161-resistant MM cell line, 48 hr, 20 μM
H929 cells = assay: MTS assay, multiple myeloma cell line H929; details: LCL161-sensitive MM cell line, 48 hr, 20 μM
L363 cells = assay: MTS assay, multiple myeloma cell line L363; details: LCL161-sensitive MM cell line, 48 hr, 20 μM
U266 cells = assay: MTS assay, multiple myeloma cell line U266; details: LCL161-resistant MM cell line, 48 hr, 20 μM

CN[C@@H](C)C(=O)N[C@@H](Cc1cc(C)c(C(F)(F)F)cc1F)C(=O)N1CCC[C@H]1C(=O)N[C@@H]1CCc2c(F)cccc21 [Compound 31]
Growth inhibition RPMI 8226 (RPMI 8226 cells): equally effective
Growth inhibition LP1 (LP1 cells): equally effective
Growth inhibition H929 (H929 cells): approximately equipotent
Growth inhibition L363 (L363 cells): approximately equipotent
Growth inhibition U266 (U266 cells): equally effective
